For one data set, the target named is pancreatic elastase I (Sus scrofa, UniProt P00772). Kind of data set: Cleavage of peptides by purified pancreatic elastase, MALDI-TOF/TOF. The note with it: 25 nM protease, 10 µM peptide, 37 °C, 2, 5, 10 and 30 min, stopped with 2% TFA. The text has this:
(§1) Trypsin-like proteases included in the experiments are trypsin-1, -2 and -3, tryptase (Enzo LifeSciences), thrombin (Sigma-Aldrich) and cathepsin G (Sigma-Aldrich). Trypsin-1, -2 and -3 were produced as described by Koistinen et al. and Wu et al.. Two elastase-like enzymes, neutrophil elastase (Enzo LifeSciences, Farmingdale, NY, USA) and pancreatic elastase I (Sigma-Aldrich) were included as well. All enzymes were from human origin except for pancreatic elastase from porcine pancreas.
(§2) Reaction mixtures with purified enzymes were compiled in an identical way. […]
(§3) MS and MS/MS data for peptide fragment identification were obtained with a MALDI-TOF/TOF instrument (4800 MALDI TOF/TOF™, Applied Biosystems, Waltham, MA, USA) and instrument parameters were set using 4000 Series Explorer™ software. MS spectra were recorded in positive reflector mode in a mass range from 500 to 4000 Da and laser intensity of 4500–4800 Hz. […] MS/MS spectra were recorded with high-energy collision-induced dissociation and the laser intensity was increased by 10%.
(§4) Identified fragments were confirmed using the MS/MS spectra and mMass 5.5.0 by Martin Strohalm. The relative intensities of the fragments were calculated as the ratio of the intensity of the peak of interest to the intensity of the peak of the standard peptide.

The chains behind the UniProt entries cited, without tags or fusion partners. Residues count along the entry.
UniProt P00772, 27-266: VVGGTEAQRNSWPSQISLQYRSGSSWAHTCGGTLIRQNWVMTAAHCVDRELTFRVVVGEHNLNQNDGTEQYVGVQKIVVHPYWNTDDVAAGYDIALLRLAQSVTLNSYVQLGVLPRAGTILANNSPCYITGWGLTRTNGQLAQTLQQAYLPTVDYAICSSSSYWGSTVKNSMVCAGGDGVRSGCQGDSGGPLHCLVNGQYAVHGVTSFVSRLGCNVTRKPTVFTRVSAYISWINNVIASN

The target in the next data set is T1, cathepsin G (Homo sapiens, UniProt P08311).
T1 sequence (P08311 21-255): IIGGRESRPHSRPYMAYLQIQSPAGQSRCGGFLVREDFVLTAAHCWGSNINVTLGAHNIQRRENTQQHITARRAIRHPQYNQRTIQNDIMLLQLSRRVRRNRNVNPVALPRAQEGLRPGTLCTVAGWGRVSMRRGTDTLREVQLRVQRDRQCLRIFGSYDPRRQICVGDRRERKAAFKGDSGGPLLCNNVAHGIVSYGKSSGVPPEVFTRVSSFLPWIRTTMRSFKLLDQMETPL
As to the kind of experiment: Cleavage of peptides by purified cathepsin G, MALDI-TOF/TOF. The note with it: 25 nM protease, 10 µM peptide, 37 °C, 2, 5, 10 and 30 min, stopped with 2% TFA.
Text: as §1, §2, §3, §4

Data set [1] can be described thus: Cleavage of peptides by colonic tissue lysates from TNBS-induced colitis rat model, MALDI-TOF/TOF. The note with it: rat colonic lysate, 10 µM peptide, 20 µg/mL protein, 37 °C, 5-30 min, stopped with 2% TFA, MALDI-TOF/TOF relative intensity vs standard peptide, n = 8 animals. Here is the method: Adult male Sprague–Dawley rats (200–225 g; Charles River, Wilmington, MA, USA) were used in a previously described TNBS-induced acute and post-inflammatory model. Rats were housed at constant room temperature (22 ± 2 °C) and humidity (60%) with two rats per cage, unlimited access to water and food and on a 12 h–12 h light/dark cycle.
After an overnight fast, TNBS colitis was induced using a TNBS-enema (4 mg TNBS; Sigma-Aldrich, 50% ethanol) as described previously. Rats were anesthetized with a mixture of ketamine (35 mg/kg i.p.; Ketalar®, Pfizer, New York City, NY, USA) and xylazine (5 mg/kg i.p.; Rompun®, Bayer, Leverkusen, Germany), and the TNBS-enema or 0.9% saline was administered intrarectally using a flexible catheter (18 G, length 4.5 cm) to colitis and control rats, respectively. Animals were kept in a tail-up position for 1 min and were then allowed to recover in their cages with free access to water and food. […]
MS and MS/MS data for peptide fragment identification were obtained with a MALDI-TOF/TOF instrument (4800 MALDI TOF/TOF™, Applied Biosystems, Waltham, MA, USA) and instrument parameters were set using 4000 Series Explorer™ software. MS spectra were recorded in positive reflector mode in a mass range from 500 to 4000 Da and laser intensity of 4500–4800 Hz.

A further data set has as its target T2, neutrophil elastase (Homo sapiens, UniProt P08246).
T2 sequence (P08246 30-267): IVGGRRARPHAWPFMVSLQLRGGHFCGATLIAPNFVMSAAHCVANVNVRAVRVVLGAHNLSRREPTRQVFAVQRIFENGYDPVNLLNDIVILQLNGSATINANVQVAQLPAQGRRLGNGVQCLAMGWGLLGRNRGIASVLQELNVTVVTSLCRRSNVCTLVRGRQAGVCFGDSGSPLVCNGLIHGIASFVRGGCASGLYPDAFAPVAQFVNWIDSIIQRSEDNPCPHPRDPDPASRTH
Kind of data set: Cleavage of peptides by purified neutrophil elastase, MALDI-TOF/TOF. To be noted: 25 nM protease, 10 µM peptide, 37 °C, 2, 5, 10 and 30 min, stopped with 2% TFA.
Text: as §1, §2, §3, §4

One compound from publication PMC8509398, “Proteolytic Cleavage of Bioactive Peptides and Protease-Activated Receptors in Acute and Post-Colitis” (International Journal of Molecular Sciences, 2021) can be followed below.

Consider `CSCC[C@H](NC(=O)[C@H](Cc1ccccc1)NC(=O)CNC(=O)CNC(=O)[C@@H](N)Cc1ccc(O)cc1)C(=O)O` [M-enkephalin, Met-enkephalin], for which, on pancreatic elastase I, the “Efficiency of the first cleavage in the peptide, Pancreatic Elastase” value is “+ (processing after 10 or 30 min)”. At cathepsin G, the “Efficiency of the first cleavage in the peptide, Cathepsin G” value is reported as “−”. For the same compound, the “Incubation time after which processing was significant (decrease of full-length peptide or increase of fragment), control samples” value in data set [1] is “not with control samples”. The “Efficiency of the first cleavage in the peptide, Neutrophil Elastase” value at neutrophil elastase was “−”.
